We go through two compounds from article PMC3510444, “LC3C, Bound Selectively by a Noncanonical LIR Motif in NDP52, Is Required for Antibacterial Autophagy” (Molecular Cell, 2012).

One experiment addresses T1, LC3C (Homo sapiens, UniProt Q9BXW4).
T1 construct: GST (cleaved yes); made in house; host or cells: E. coli BL21
In words: Fluorescence anisotropy assay of FITC-labeled NDP52 CLIR peptides against LC3C. The format is binding. The settings on record: fluorescence anisotropy equilibrium, FITC-Ahx-labeled 14-mer NDP52 peptide (aa 128–141), 100 nM mixed with equal volume of serially diluted LC3C; 50 mM Tris, 50 mM NaCl, pH 8.0; errors (Fig. 5B) = standard deviation, triplicate.

The subject of the next experiment is human ATG8 orthologs. In words: Immunoprecipitation / LUMIER binding assay against GST-tagged human ATG8 orthologs. The settings on record: immunoprecipitation and/or LUMIER, lysates of 293ET cells, GST-tagged ATG8 orthologs on beads. The method, then: These were performed as described previously ([Barrios-Rodiles et al., 2005]; [Ryzhakov and Randow, 2007]). […]
encoding GABARAP; 5’-[…]-3’ and 5’-
-3’ for GABARAPL1/GEC1, encoding GABARAPL1; 5’-
GABARAPL2/GATE-16, encoding GABARAPL2.
Immunoprecipitation and Western blot. Post-nuclear supernatants from 2 x 10^6 HeLa cells were obtained following lysis in 150 mM NaCl, 0.1% (v/v) Triton-X100, 20 mM Tris–HCl (pH 7.4), 5 mM EDTA and Complete protease inhibitors (Roche).
Visualization following immunoblotting was performed using ECL detection reagents […]
LUMIER assay.(Ryzhakov and Randow, 2007; Barrios-Rodiles et al., 2005) Binding assays with pairs of putative interactors, one fused to luciferase and the other fused to GST or Flag, were performed in LUMIER lysis buffer (150 mM NaCl, 0.1% (v/v) Triton-X100, 20 mM Tris–HCl (pH 7.4), 5% (v/v) glycerol, 5 mM EDTA and Complete protease inhibitors (Roche)). GST-fusion proteins were immobilized on beads before incubation for 2 h with equal amounts of luciferase tagged binding partners, as determined by luciferase activity. After washing in lysis buffer, proteins were eluted with glutathione in Renilla lysis buffer (Promega). Relative luciferase activity represents the ratio of activity eluted from beads and present in lysates. […]

As usually defined, the Kd is a measure of binding affinity in units of concentration. A higher Kd goes with weaker binding.

For the compound `CC[C@H](C)[C@H](NC(=O)[C@H](CC(=O)O)NC(=O)[C@H](CCC(=O)O)NC(=O)[C@H](CCC(=O)O)NC(=O)[C@H](CC(N)=O)NC(=O)[C@H](CCC(=O)O)NC(=O)CCCCCNC(=S)Nc1ccc2c(c1)C(=O)OC21c2ccc(O)cc2Oc2cc(O)ccc21)C(=O)N[C@@H](CC(C)C)C(=O)N[C@H](C(=O)N[C@H](C(=O)N[C@H](C(=O)N[C@H](C(=O)N[C@@H](CCC(N)=O)C(=O)NCC(=O)N[C@@H](CCC(=O)O)C(=O)O)[C@@H](C)O)[C@@H](C)O)C(C)C)C(C)C` [CLIR^WT], on LC3C, the Kd came to 1610 ± 120 nM.

For “p62: ubiquitin-binding autophagy receptor”, in the experiment on human ATG8 orthologs, the “binding selectivity among human ATG8 orthologs” value is given as “interacted nonselectively with all human ATG8 orthologs”.
